Each binder was assayed against T1, soluble human FcRn (shFcRn) (human, UniProt P55899 24-297; P61769 21-119) (assay: SPR pH 7.4).
T1 construct: Biotinylated for the ELISA, amine-coupled to a CM5 chip for SPR; also called biotinylated shFcRn
Method: (§1) The following steps were performed to cross-link soluble human or cynomolgus FcRn to the dextran surface of a CM5 sensor chip (Biacore AB, Uppsala, Sweden) by an amine coupling reaction involving 1-ethyl-(3-dimethylaminopropyl)-carbodiimide hydrochloride (EDC) (Biacore AB, Uppsala, Sweden) and N-hydroxysuccinimide (NHS) (Biacore AB, Uppsala, Sweden) as recommended by Biacore (BIAapplications Handbook, version AB, section 4.2, Biacore AB, Uppsala, Sweden). […] Residual sites on the FcRn flow cell were blocked with 1 M ethanolamine hydrochloride pH 8.5 (Biacore AB, Uppsala, Sweden). A control flow cell was blocked with ethanolamine for reference subtraction. For analysis of the monomeric peptides, FcRn was coated to a final density of 4000-5000 response units (RU). For analysis of the peptide dimers, FcRn was coated to a density of 2000-2500 RU. All SPR measurements were performed using a BIACORE 3000 Instrument (Biacore AB Uppsala, Sweden). For measurements done at either pH 6 or pH 7.4, experiments were performed in 50 mM phosphate, 100 mM sodium chloride, 0.01% surfactant P20 (Biacore AB, Uppsala, Sweden).
(§2) The peptide was dissociated from the chip for 2.5 minutes with buffer. […] Sensorgrams were generated and analyzed using BiaEval software version 3.1 (Biacore AB, Uppsala, Sweden). The equilibrium RU observed for each injection was plotted against concentration.

By UniProt entry, the sequences of proteins in these tests, tags left out. Residues count along the entry.
UniProt P55899, 24-297 limits assumed, chain 1 of 2: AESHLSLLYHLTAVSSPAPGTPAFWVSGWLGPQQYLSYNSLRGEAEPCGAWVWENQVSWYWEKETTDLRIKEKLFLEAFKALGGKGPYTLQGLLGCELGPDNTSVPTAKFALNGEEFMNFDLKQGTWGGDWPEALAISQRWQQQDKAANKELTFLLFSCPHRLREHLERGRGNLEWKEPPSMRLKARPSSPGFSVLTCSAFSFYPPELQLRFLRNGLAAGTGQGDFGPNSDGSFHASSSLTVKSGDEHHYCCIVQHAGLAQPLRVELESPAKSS

In order of falling Kd:
1. QRFCTGHFGYLYPCNGP (Pen 4; D-Tyr 10; disulfide 4-14; C-terminal amide) [Peptide No. 45]  31 µM
2. QRFCTGHFPGLYPCNGP (Pen 4; D-Pro 9; disulfide 4-14; C-terminal amide) [Peptide No. 48]  21 µM
3. QRFCTGXFGGLYPCNGP (Pen 4; Dap(Guanyl) 7; disulfide 4-14; C-terminal amide) [Peptide No. 297]  16 µM
4. RFCTGAFGGLYPC (Pen 3; Sar 9; NMeLeu 10; disulfide 3-13; C-terminal amide) [Peptide No. 266]  13 µM

Each binder was assayed against T1, soluble human FcRn (shFcRn) (assay: SPR pH 6; 4-fluoro-Phe in place of Tyr; Pen backbone).
Method: as §1, §2

Work on QRFCTGHFGGLFPCNGP (Pen 4; 4-fluoro-Phe 12; disulfide 4-14; C-terminal amide) [Peptide No. 140] yielded a Kd of 2.2 µM.

Each binder was assayed against T1, soluble human FcRn (shFcRn) (assay: SPR pH 6).
Method: as §1, §2

In order of rising Kd:
1. QRFCTGHFGGWYPCNGP (Pen 4; Sar 10; disulfide 4-14; C-terminal amide) [Peptide No. 238]  0.068 µM
2. QRFCTGHFGGWYPCNGP (Pen 4; disulfide 4-14; C-terminal amide) [Peptide No. 116]  0.17 µM
3. QRFCTGHFGPLYPCNGP (Pen 4; D-Pro 10; disulfide 4-14; C-terminal amide) [Peptide No. 40]  0.23 µM
4. QRWCTGHFGGLYPCNGP (Pen 4; disulfide 4-14; C-terminal amide) [Peptide No. 98]  0.29 µM
5. QRFCTGHFYGLYPCNGP (Pen 4; D-Tyr 9; disulfide 4-14; C-terminal amide) [Peptide No. 53]  0.32 µM
6. RFCTGHFQGLYPC (Pen 3; D-Gln 8; Sar 9; NMeLeu 10; disulfide 3-13; C-terminal amide) [Peptide No. 245]  0.36 µM
7. QRFCTGHFHGLYPCNGP (Pen 4; D-His 9; disulfide 4-14; C-terminal amide) [Peptide No. 50]  0.41 µM
8. QRFCTGHFGGMYPCNGP (Pen 4; disulfide 4-14; C-terminal amide) [Peptide No. 117]  0.44 µM
9. QRFCTGHFPGLYPCNGP (Pen 4; D-Pro 9; disulfide 4-14; C-terminal amide) [Peptide No. 48]  0.79 µM
10. QRFCTGHXGGLYPCNGP (Pen 4; 2-pyridylalanine 8; disulfide 4-14; C-terminal amide) [Peptide No. 58]  1.2 µM
11. QRFCTGHFGILYPCNGP (Pen 4; D-Ile 10; disulfide 4-14; C-terminal amide) [Peptide No. 43]  2.2 µM
12. QRFCTGHXGGLYPCNGP (Pen 4; 1-napthylalanine 8; disulfide 4-14; C-terminal amide) [Peptide No. 61]  2.2 µM
13. QRFCTGHFIGLYPCNGP (Pen 4; D-Ile 9; disulfide 4-14; C-terminal amide) [Peptide No. 51]  2.6 µM
14. RFCTGHFDGLYPC (Pen 3; D-Asp 8; Sar 9; NMeLeu 10; disulfide 3-13; C-terminal amide) [Peptide No. 242]  2.6 µM
15. QRFCTGHWGGLYPCNGP (Pen 4; disulfide 4-14; C-terminal amide) [Peptide No. 95]  2.7 µM
16. RFCTGHFWGLYPC (Pen 3; D-Trp 8; Sar 9; NMeLeu 10; disulfide 3-13; C-terminal amide) [Peptide No. 220]  2.7 µM
17. QRFCTGHFPPLYPCNGP (Pen 4; D-Pro 9 and 10; disulfide 4-14; C-terminal amide) [Peptide No. 152]  3.3 µM
18. QRFCTGHXGGLYPCNGP (Pen 4; Cha 8; disulfide 4-14; C-terminal amide) [Peptide No. 93]  4.5 µM
19. RFCTGHFVGLYPC (Pen 3; D-Val 8; Sar 9; NMeLeu 10; disulfide 3-13; C-terminal amide) [Peptide No. 218]  13 µM
20. QRFCTGXFGGLYPCNGP (Pen 4; Dap(Guanyl) 7; disulfide 4-14; C-terminal amide) [Peptide No. 297]  13 µM
21. QRFCTGHFGGLXPCNGP (Pen 4; 2-pyridylAla 12 (printed 2-pvridylAla); disulfide 4-14; C-terminal amide) [Peptide No. 66]  120 µM

These binders were tested against T1, soluble human FcRn (shFcRn) (assay: IgG competition ELISA).
Method: Afterwards, the plate was washed with 200 μl/well of Buffer B (Buffer B: 100 mM MES pH 6, 150 mM NaCl, 0.5% BSA IgG-free (Jackson ImmunoResearch, West Grove, Pa.), 0.05% Tween-20). […] To allow for mixing, the plate was rocked for 2 minutes, sealed and incubated at 37° C. for 2 hours. […] Once color developed, 100 μl/well of TMB stop solution (KPL, Gaithersburg, Md.) was added and the absorbance was measured at 450 nm.

In order of rising IC50:
1. FCTGHFGPLYPC (Pen 2; D-Pro 8; disulfide 2-12; C-terminal amide) [Peptide No. 143]  1.7 µM
2. QRFCTGHFGGWYPCNGP (Pen 4; disulfide 4-14; C-terminal amide) [Peptide No. 116]  1.7 µM
3. QRFCTGHFDGLYPCNGP (Pen 4; D-Asp 9; disulfide 4-14; C-terminal amide) [Peptide No. 47]  3.1 µM
4. QRFCTGHFYGLYPCNGP (Pen 4; D-Tyr 9; disulfide 4-14; C-terminal amide) [Peptide No. 53]  3.2 µM
5. QRFCTGHFAALYPCNGP (Pen 4; D-Ala 9 and 10; disulfide 4-14; C-terminal amide) [Peptide No. 148]  4.5 µM
6. RFCTGHFQGLYPC (Pen 3; D-Gln 8; Sar 9; NMeLeu 10; disulfide 3-13; C-terminal amide) [Peptide No. 245]  4.5 µM
7. QRFCTGHFGGHYPCNGP (Pen 4; disulfide 4-14; C-terminal amide) [Peptide No. 84]  6.5 µM
8. QRFCTGHFGGMYPCNGP (Pen 4; disulfide 4-14; C-terminal amide) [Peptide No. 117]  7.7 µM
9. QRFCGGHFGGLYPCNGP (Pen 4; disulfide 4-14; C-terminal amide) [Peptide No. 195]  7.7 µM
10. QRFCTGHFIGLYPCNGP (Pen 4; D-Ile 9; disulfide 4-14; C-terminal amide) [Peptide No. 51]  9.4 µM
11. RFCTGHFFGLYPC (Pen 3; D-Phe 8; Sar 9; NMeLeu 10; disulfide 3-13; C-terminal amide) [Peptide No. 217]  11 µM
12. RFCTGHFWGLYPC (Pen 3; D-Trp 8; Sar 9; NMeLeu 10; disulfide 3-13; C-terminal amide) [Peptide No. 220]  11 µM
13. QRFCTGHFGHLYPCNGP (Pen 4; D-His 10; disulfide 4-14; C-terminal amide) [Peptide No. 42]  12 µM
14. QRFCTGHFGFLYPCNGP (Pen 4; D-Phe 10; disulfide 4-14; C-terminal amide) [Peptide No. 44]  13 µM
15. QRFCTGHFGYLYPCNGP (Pen 4; D-Tyr 10; disulfide 4-14; C-terminal amide) [Peptide No. 45]  13 µM
16. QRFCTGHXGGLYPCNGP (Pen 4; 1-napthylalanine 8; disulfide 4-14; C-terminal amide) [Peptide No. 61]  13 µM
17. QRFCTGHFFPLYPCNGP (Pen 4; D-Phe 9 (Pro 10 is L); disulfide 4-14; C-terminal amide) [Peptide No. 203]  22 µM
18. QRFCTGHXGGLYPCNGP (Pen 4; Cha 8; disulfide 4-14; C-terminal amide) [Peptide No. 93]  31 µM
19. RFCTGHFDGLYPC (Pen 3; D-Asp 8; Sar 9; NMeLeu 10; disulfide 3-13; C-terminal amide) [Peptide No. 242]  33 µM
20. QRFCTGXFGGLYPCNGP (Pen 4; Dap(Guanyl) 7; disulfide 4-14; C-terminal amide) [Peptide No. 297]  54 µM

What follows are binders tested against T1, soluble human FcRn (shFcRn) (assay: SPR pH 6; 4-methoxyPhe in place of Tyr; Pen backbone).
Method: as §1, §2

QRFCTGHFGGLFPCNGP (Pen 4; 4-methoxyPhe 12; disulfide 4-14; C-terminal amide) [Peptide No. 64] gave a Kd of 31 µM.
